Earlier results in patent US20170354706A1, “HYBRID PROTEINACEOUS MOLECULE CAPABLE OF INHIBITING AT LEAST ONE ANTIBIOTIC AND PHARMACEUTICAL COMPOSITION CONTAINING IT” (priority 2014, published 2017).

Details: human, in vivo; cited from earlier work

Substance: Augmentin
- Patients with acute diarrhoea induced by antibiotics: 10-25%
